# Measured affinities in a library of Ab-14 light chain variants

Source: Li et al. 2023 (doi:10.1038/s41467-023-39022-2), MIT Lincoln Laboratory and A-Alpha Bio; data file from the FLAb repository.

Target: peptide PDVDLGDISGINAS, taken from heptad repeat 2 (HR2) of SARS-CoV-2 spike.

Each scFv is VH, a (GGGGS)3 linker, VL, as in the parent Ab-14, and differs from it in the CDRs of the light chain only.
VH: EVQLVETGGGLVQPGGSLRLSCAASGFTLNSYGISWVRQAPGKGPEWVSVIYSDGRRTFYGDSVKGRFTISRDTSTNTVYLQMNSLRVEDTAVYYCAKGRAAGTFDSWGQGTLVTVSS
VL: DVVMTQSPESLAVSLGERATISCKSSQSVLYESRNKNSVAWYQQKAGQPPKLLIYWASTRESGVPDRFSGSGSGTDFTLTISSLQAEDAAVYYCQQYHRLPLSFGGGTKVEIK

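The variants were designed computationally from a first round of random CDR variants and then made and measured. Group labels follow the data file (Ctrl: baseline library sampled from a position-specific scoring matrix, with some repeated check sequences; En: ensemble of fine-tuned language models; GP: Gaussian process model; GPLM: also part of the Gaussian process libraries; HC: hill climbing; Gen: genetic algorithm; Gibbs: Gibbs sampling; a sequence that several methods proposed may carry one label only). AlphaSeq pools MATa yeast showing the antibodies with MATalpha yeast showing the peptide. Mating (16 h, 30 °C) was followed by selection of diploids and sequencing of their barcodes. Read counts were normalised to the haploid input and turned into Kd by a linear fit to BCL2-family pairs of known affinity, for each replicate. Mating was done six times.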

Each variant is given by its three light chain CDRs, as the data file delimits them; those of the parent are KSSQSVLYESRNKNSVA, WASTRES, QQYHRLPLS. Scale: log10 of Kd in nM, estimated from mating counts; low values are strong binders. Replicates are averaged; those with no signal do not enter the mean. A pair that was not seen in that replicate is written "nd"; this usually means weak binding, but a binder can also be missed. The authors averaged sequences with at least three values out of six and counted those with two or fewer as poor binders.

| CDR-L1 | CDR-L2 | CDR-L3 | group | log10 Kd (nM) by replicate | mean log10 Kd (nM) |
|---|---|---|---|---|---|
| KLSQSWLYESRNKNAVA | NASTRES | QQYHRLPLS | GP_Gen | -0.15 -0.36 -0.46 -0.24 -0.29 -0.17 | -0.28 |
| KSSISVLYESRNKNSVA | WASTRES | QQYHHLPLS | Ctrl | nd nd 3.70 2.97 nd 2.86 | 3.17 |
| NISESMYFQSRIKNNIA | EMSTRER | QHYHRLPLS | En_HC | 1.71 1.27 1.75 1.22 1.43 1.21 | 1.43 |
| MFSQTVMYESTMRNNVA | QTSTRES | QQYDRLPLS | En_HC | nd nd nd 1.22 nd nd | 1.22 |
| KSQISQEYESRNKNSVA | HASTRED | QQYHRLPLS | GP_HC | 0.86 0.65 0.91 1.02 0.95 1.15 | 0.92 |
| HITYGMMVHGRHSKSIA | QAEERAK | QQYDRLPLS | En_Gen | nd nd nd 0.34 nd nd | 0.34 |
| KVLQSVEYEGRNKNSVA | HASTRED | QQYHRLPLS | GP_HC | 0.36 0.47 0.39 0.30 0.51 0.57 | 0.43 |
| ILSQSVLMGMHLKNSVA | QASTRFA | QQYHRLPLM | En_HC | 2.89 1.34 1.23 1.97 1.47 2.06 | 1.83 |
| HMRHEFYGYWNYDQAVA | HENQRLN | QQYSRLPLS | En_Gibbs | nd 1.51 nd 1.50 2.58 3.31 | 2.23 |
| KSSQSVHYESRNKNSVA | WASTRES | QQYHRLPLS | Ctrl | nd nd nd nd 2.28 2.53 | 2.41 |
| KSSISELYESRNTNSVA | EASTRES | QQYHRLPLS | GP_HC | 0.18 0.17 0.24 0.37 0.11 0.36 | 0.24 |
| KMSQSYLYESRNKNSVA | NASTRES | QQYHRLPLS | GP_Gen | 0.32 0.36 0.02 0.06 -0.04 0.23 | 0.16 |
| KQQQGELMESRNKNSVA | HASERES | QQYHRLPLS | GP_Gibbs | 0.34 0.40 0.33 0.39 0.48 0.39 | 0.39 |
| KSSQSVEYESQNKNSVA | QASTRES | QQYHRLPLS | Ctrl | 0.70 0.21 -0.14 0.23 0.46 0.13 | 0.26 |
| KAQDSELYSSRDDNSVA | DASKRES | QQYHRLPLS | GP_Gibbs | 0.23 0.07 0.11 0.04 0.01 0.40 | 0.14 |
| MVNGIMDHLSKQTNNVA | ETVTREE | QQYDRLPLS | En_Gen | 1.67 2.43 1.12 0.75 0.83 1.33 | 1.35 |
| KLSMETYGLTGHTSSIA | HEEIRWA | QQYHKLPLI | En_Gibbs | 1.16 1.31 1.45 1.44 1.74 1.46 | 1.43 |
| KISQSVLYESRNKNSVA | WASTRED | QQYHRLPLS | Ctrl | 0.34 0.98 0.97 0.06 0.45 1.14 | 0.66 |
| SISGFMKSLSAHANSVA | DMTNRED | QQYDRLPLS | En_Gen | 0.09 0.58 -0.37 1.19 0.99 0.53 | 0.50 |
| KVSQAVLYESFNKNSVA | HMSTRET | QQYHWQPLS | Ctrl | nd nd nd nd nd 2.56 | 2.56 |
| KSGQGVLYESRNKNSVA | GASTRWS | QQYHRLPLS | GPLM_HC | 0.27 -0.28 0.01 -0.05 0.07 0.04 | 0.01 |
| TLMQVGGYEMNEHNSIA | DLRTREN | QQYHRLPLS | En_HC | 2.90 1.17 1.16 1.27 1.08 1.26 | 1.48 |
| KLSQSELYESRNWNSVA | NASTRES | QQYHRLPLS | GP_Gen | 0.28 0.10 -0.02 0.04 0.09 0.41 | 0.15 |
| KVHQSVLYESRNKNSVA | NASTRES | QQYHRLPLS | GP_Gen | -0.13 -0.28 -0.15 -0.55 -0.18 -0.05 | -0.22 |
| KFSQSTLYESRNKNSVA | NASQRES | QQYHRLPLS | GP_Gen | 0.45 0.26 0.13 0.59 0.22 0.29 | 0.32 |
| KVSQSWLYESRNKNSVA | EASTRES | QDYHRLPLS | GP_Gen | -0.28 -0.33 -0.35 -0.42 -0.52 -0.10 | -0.33 |
| KLSQSVEVLDRNKNSVA | EASTREM | QQYHRLPLS | GP_Gibbs | 0.15 0.03 -0.15 0.08 -0.02 0.09 | 0.03 |
| RFSQRVLYYSRNKNSVA | WASVRES | QQYSDLPLS | Ctrl | 1.74 1.35 1.96 1.92 1.53 nd | 1.70 |
| KVSEFMRGLMKKQDSIA | DNETRNS | QQYDRLPLS | En_Gen | 1.18 1.90 2.06 2.26 4.45 2.25 | 2.35 |
| KLSQSVLGGSRNKNSVA | HASTRES | QQYHRLPLY | GP_Gibbs | 0.49 0.54 0.42 0.55 0.71 0.66 | 0.56 |
| KSQQSVLYESRNKNAVA | NASTRES | QQYHRLPLS | Ctrl | 2.49 2.00 2.29 3.42 3.50 2.84 | 2.76 |
| KLPQSVLYESRNKNSVA | QASTRMS | QQYHRLPLS | GP_Gen | 0.02 -0.02 -0.10 -0.19 0.00 0.01 | -0.05 |
| KLSQGHLYESRNKNSVA | NASTRES | QQYHRLPLS | GP_Gen | -0.03 0.45 -0.19 -0.03 -0.05 0.02 | 0.03 |
| SVTRYTDENGLKMSSIA | GAGNRMT | QQYHRLPLT | En_Gibbs | 1.58 1.67 nd nd nd nd | 1.62 |
| KSSQSVIYESRNKNSVA | WASTRES | NQYHRLPLS | Ctrl | nd nd nd nd nd nd | nd |

As a blank, each scFv also met three strains without target: over all light chain designs, 4% of these pairings were detected, typically at 2.64 and seldom below 1.59. The range of this assay differs from that of the first round, and the authors advise against merging the two. The parent sequence was in this pool as ten entries: three were never detected, three once, and four in most replicates, with averages from 0.34 to 2.37.